# scFv variants of Ab-14 (light chain) against a SARS-CoV-2 spike peptide

Reference: Engelhart et al. 2022, doi:10.1038/s41597-022-01779-4. File: FLAb, binding data.

Target: peptide PDVDLGDISGINAS, taken from heptad repeat 2 (HR2) of SARS-CoV-2 spike.

The variants keep the heavy chain, the linker and the frameworks of Ab-14 (scFv order VH, a 15-residue (Gly4Ser)3 linker, VL).
VH: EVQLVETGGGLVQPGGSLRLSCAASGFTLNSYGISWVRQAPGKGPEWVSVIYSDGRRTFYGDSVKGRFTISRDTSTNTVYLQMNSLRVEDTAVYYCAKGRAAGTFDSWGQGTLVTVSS
VL: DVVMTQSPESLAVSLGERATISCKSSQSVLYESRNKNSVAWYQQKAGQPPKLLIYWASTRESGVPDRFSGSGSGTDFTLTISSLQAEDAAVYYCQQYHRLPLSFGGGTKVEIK

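Phage display of a naive human antibody library on the peptide gave the parent. In library AAYL50, one, two or three CDR residues were substituted; doubles and triples were drawn at random. Affinity was read by AlphaSeq, a pooled yeast mating assay with surface-displayed partners. After mating in shaken culture at 30 °C for 16 h, diploids were selected and their barcode pairs sequenced. Scores were corrected for input abundance and mapped to Kd with protein pairs of known affinity run in the same pool. Mating was done three times.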

Each variant is given by its three light chain CDRs, as the data file delimits them; those of the parent are KSSQSVLYESRNKNSVA, WASTRES, QQYHRLPLS.
Numbers give log10(Kd / nM), so 0 is 1 nM and 3 is 1 µM. Smaller is tighter.
"nd" marks a missing value. The strain was present, yet no cells mated with the target were sequenced in that replicate, which points to weak or no binding.
Empty control strains, which show no peptide, gave a signal in 18% of pairings with library AAYL50; the median was 4.19 and 95% of these signals were weaker than 2.99. No background was subtracted. The control count says in how many pairings with the empty strains this scFv gave a signal, with their mean in brackets.

CDR-L1	CDR-L2	CDR-L3	log10 Kd, replicates	signal with controls
KSSQSVLYESRNSNSVA	WASTRSS	TQYHRLPLS	3.62 nd nd	1/9 (3.74)
KSSQSVLYPSRNFNSVA	WATTRES	QQYHRLPLS	1.06 1.05 1.07	1/9 (6.01)
KSSQSVLYSSRNKNSVA	WASTRES	QQLERLPLS	1.39 1.66 1.53	0/9
KSSQSVLYESRNKDSVA	WASTRES	CQYHRLPLG	0.65 1.13 0.87	3/9 (3.91)
KSSQQVLYESRNKNSVA	WAFTRMS	QQYHRLPLS	2.43 3.28 2.40	0/9
KSSQSVLYESRNKGSGA	WASTRES	IQYHRLPLS	nd nd 5.64	0/9
KSSQSVLQESRNKNSVA	WASTRES	QQYHNLVLS	nd nd nd	2/9 (3.63)
KSSQSVLYESRNKNSVA	WASTRES	RQYHRLLLF	4.39 nd nd	3/9 (4.58)
KSSQSVLYSYLNKNSVA	WASTRES	QQYHRLPLS	0.70 0.81 0.47	0/9
KSFQSVLYYSRNKNSVA	WASTRES	QQCHRLPLS	nd nd nd	0/9
KSSQSVLYESRNKWSVA	WASTREC	QQYHRLPYS	nd 4.58 nd	2/9 (3.61)
KSSQEVLYESRNKNSVA	WASTRES	IQKHRLPLS	nd nd nd	0/9
KSSQSVLYEYRMKNSVM	WASTRES	QQYHRLPLS	nd nd nd	1/9 (4.13)
KSSQSVLYESRNKCSVA	WASTRES	QQYHRLPGC	4.11 3.39 3.81	6/9 (4.70)
KSSQSVLYEGRFKNSVA	WASTRES	QRYHRLPLS	2.22 2.17 2.09	5/9 (4.70)
KSSQSVLYESRNHNSVA	CASTRVS	QQYHRLPLS	2.67 2.02 2.47	3/9 (4.74)
KSSQNVLYESRNKVSVA	WASTRES	QYYHRLPLS	nd 4.77 5.62	1/9 (5.08)
KSSQSVLSESRNWNSVA	AASTRES	QQYHRLPLS	-0.30 0.11 -0.11	2/9 (3.33)
KSSQSVLYESRNKNSVA	WALTRES	DQYHHLPLS	nd 3.12 3.47	6/9 (3.87)
KSSQSWLYESRNKNSVA	GASTRES	QQYHRLPLS	-0.80 -0.29 -0.66	5/9 (4.78)
KSSQSVNYESRNKNSVA	WASTRES	QQYTRLPLE	0.52 0.70 0.59	2/9 (4.54)
KSSQSVLYESRNKNSVA	WASTRES	QQYHHLPLH	0.65 0.81 0.80	3/9 (5.90)
KSSQSVLYESRNKNSVA	WASTRES	QQYFHLHLS	0.60 0.88 0.86	0/9
KSSQSVLYESRNKNSVA	WASTREA	QQYHRLHLS	1.19 1.39 1.09	2/9 (4.62)
KSSQSWLYESRNVNSVA	WASTRES	RQYHRLPLS	nd nd nd	0/9
DSSQSVLYESRNKNSEA	WASTRES	QQYHRLTLS	nd nd nd	0/9
KSSQSVLYESRNKPSVA	WAETRES	QQYHRLPLS	1.50 1.57 1.74	3/9 (4.06)
KSSQSVLYESRNKNTVF	WASTRES	QQYHRQPLS	5.96 3.91 nd	1/9 (3.57)
KSSQSVLYESRNKNSVA	WAWTRES	QSIHRLPLS	1.96 2.43 2.74	1/9 (3.90)
KSSQSVLIESRNKNSVA	PAATRES	QQYHRLPLS	5.23 3.88 3.67	3/9 (3.27)
KSSQSVLYESRNKNMVA	WASTRES	QQYWLLPLS	2.22 2.46 2.48	1/9 (4.49)
KSNQSVLYESTNKNSVA	WASTGES	QQYHRLPLS	3.48 2.91 3.30	6/9 (4.78)
KFSQSVLYESRPKNSVA	WANTRES	QQYHRLPLS	1.38 0.97 0.71	0/9
KSSQSVLDEPRNKNSVA	WASTRES	QQYHRLPLS	2.08 2.43 2.61	3/9 (4.45)
KSSQSVLYESRNKHSVA	WASTRQT	QQYHRLPLS	1.21 1.36 1.27	2/9 (3.90)
KSSQSVLYEVRNKNSVA	WASTREK	QQYHRLPLK	nd 1.96 2.90	0/9
KISQSVLYESRNKNSVA	WASTRES	QQYHYLPLS	0.78 0.90 1.10	0/9
ISSQSVLYEFRNKNSVA	WASTRES	SQYHRLPLS	nd nd nd	2/9 (5.63)

The first 4 entries again:

CDR-L1	CDR-L2	CDR-L3	log10 Kd, replicates	signal with controls
KSSQSVLYESRNSNSVA	WASTRSS	TQYHRLPLS	3.62 nd nd	1/9 (3.74)
KSSQSVLYPSRNFNSVA	WATTRES	QQYHRLPLS	1.06 1.05 1.07	1/9 (6.01)
KSSQSVLYSSRNKNSVA	WASTRES	QQLERLPLS	1.39 1.66 1.53	0/9
KSSQSVLYESRNKDSVA	WASTRES	CQYHRLPLG	0.65 1.13 0.87	3/9 (3.91)